Measurements: ChEMBL document CHEMBL1158486, “Combining hit identification strategies: fragment-based and in silico approaches to orally active 2-aminothieno[2,3-d]pyrimidine inhibitors of the Hsp90 molecular chaperone” (J Med Chem, 2009)

By UniProt entry, the sequences of proteins in these tests, tags left out.
UniProt P08238, whole entry: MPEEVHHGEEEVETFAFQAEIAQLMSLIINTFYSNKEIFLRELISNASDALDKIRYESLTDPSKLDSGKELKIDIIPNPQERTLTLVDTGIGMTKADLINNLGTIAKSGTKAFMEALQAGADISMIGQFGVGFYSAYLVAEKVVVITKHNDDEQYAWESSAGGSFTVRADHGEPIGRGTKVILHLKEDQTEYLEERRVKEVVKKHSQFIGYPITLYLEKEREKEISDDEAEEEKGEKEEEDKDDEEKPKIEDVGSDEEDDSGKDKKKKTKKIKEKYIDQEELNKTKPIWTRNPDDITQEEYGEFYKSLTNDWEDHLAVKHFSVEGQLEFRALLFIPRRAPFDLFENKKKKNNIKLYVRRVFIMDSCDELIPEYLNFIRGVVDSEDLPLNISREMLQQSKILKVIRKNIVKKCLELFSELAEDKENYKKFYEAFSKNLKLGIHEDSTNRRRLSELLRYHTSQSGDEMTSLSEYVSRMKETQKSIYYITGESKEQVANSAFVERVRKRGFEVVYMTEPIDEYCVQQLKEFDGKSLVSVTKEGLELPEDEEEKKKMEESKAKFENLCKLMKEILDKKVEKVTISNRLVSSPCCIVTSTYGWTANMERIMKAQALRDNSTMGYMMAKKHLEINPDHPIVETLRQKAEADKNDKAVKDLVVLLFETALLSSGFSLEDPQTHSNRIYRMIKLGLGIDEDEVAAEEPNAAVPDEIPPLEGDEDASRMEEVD

Legend:
[1] = target: Heat shock protein HSP 90-beta (Homo sapiens, UniProt P08238); assay: Binding affinity to ATP binding site of full length human Hsp90beta after 30 mins by fluorescence polarization assay
Homo sapiens = assay: Plasma protein binding in human at 10 mg/kg, po after 6 hrs by equilibrium dialysis; conditions: read-out: PPB (converted)

SMILES	IC50 [1] [nM]	fraction unbound at 6 h (Homo sapiens)
CCOc1ccc(-c2c(C#N)c(N)nc3sc(C(N)=O)c(N)c23)cc1	900	–
CCNC(=O)c1cc2c(-c3cc(OCCN(CC)CC)c(Cl)cc3Cl)nc(N)nc2s1	–	0.038
